miR-21 reporter: raises the signal of a miR-21 reporter. HeLa miR-21 FLuc reporter, luciferase, 48 h. 340,000 tested, under 10 active. Potency, µM (highest dose often 38.3 µM), for the others: at the highest dose reporter change, positive = more light; active = well fitted rising curve with a large enough effect; inconclusive = small, poorly fitted or top-dose-only effect; inactive = no such curve, though single readings can be large or run the other way;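 note: % of control where 0% means no effect; miR-21 action dims this reporter so a rising signal means less miR-21 action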
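HeLa miR-21-FLuc reporter line, endogenous miR-21; 2000 cells/well in DMEM/10% FBS; compound titration up to ~40uM final, 48 h, 37 degree Celsius; luciferase detection reagent, 15 min lysis, CCD luminescence.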
Pin1 inhibitor: inhibitors of human Pin1 | Q13526 | Pin1 FP peptide displacement, HiFluor488, 10 min | Potency, µM (titrated, usually from 115 µM), for the others: at the highest dose activity, negative = inhibition, most hits filed as inhibitors | 390,000 tested, 0.009% active | AID 504891; active = well fitted inhibition curve with a large enough effect in the polarisation, with a control signal flat, not every such curve was filed as active; inconclusive = small, poorly fitted or top-dose-only effect, or effect the other way, or a change in a side signal; inactive = no such curve, though single readings can be large or run the other way; the % refers to the polarisation; note: potency is the fitted concentration of half-maximal effect; % is set by controls: 0 for no effect and ±100 for the full control effect
PTHR1 ag: PTHR1 (human) receptor agonism. Potency, µM (titrated, usually from 115 µM), for inactives: at the top dose activation, most hits filed as activators. HEK293 GP2 PTHR1 cells, GloSensor cAMP luminescence, 1 h. 410,000 tested, 0.075% active; note: potency is the fitted concentration of half-maximal effect; nearly all actives have a fitted effect of over 55% in size
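HEK-293-derived GP2 cells expressing PTHR1 and a GloSensor cAMP reporter, 3,000/well, plated overnight, given luciferin plus IBMX (each 0.5 mM as added) for 1 h at 37 °C, then compound for 1 h at 37 °C. Luminescence was read after 15 min at room temperature.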
HEK293 tox: cytotoxicity in counter-screen for GLP-1R inverse agonists; AID 624418; Potency, µM (top dose mostly 38.3 µM), inactives show top-dose activity change, negative = inhibition, actives largely listed as inhibitors; HEK293 cAMP-luciferase reporter cells, luminescence, 24 h; 410,000 tested, 0.13% active;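 note: loss of luciferase light is scored as toxicity; potency is the fitted concentration of half-maximal effect; % is set by controls: 0 for no effect and ±100 for the full control effect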
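1536-well qHTS counterscreen of the MLSMR; 200 cells/uL, 12 h pre-incubation, 23 nL cpd, 24 h at 37 deg C 5% CO2, luciferase detection reagent, 12 min RT, luminescence. Inhibition = undesired.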
GLP1R ag: agonists of human GLP-1 receptor; P43220; HEK293 GLP-1R CRE-luciferase, luminescence, 4-6 h; cells express a hypersensitive GLP-1R form; Potency, µM (highest dose often 45.6 µM), without a hit: at the highest dose activation, most hits filed as activators; 380,000 tested, 0.007% active; note: potency is the fitted concentration of half-maximal effect; % of control where 0% means no effect
GLP-1R inv ag: acts as inverse agonist at human GLP-1 receptor; Potency, µM (series often up to 38.3 µM), for the others: top-dose activity change, negative = inhibition, actives largely listed as inhibitors; P43220; 410,000 tested, 1.6% active; AID 624417; HEK293 GLP-1R CRE-luciferase, luminescence, 24 h; GLP-1R form is constitutively active; note: potency is the fitted concentration of half-maximal effect; % is set by controls: 0 for no effect and ±100 for the full control effect; nearly all actives have a fitted effect of over 55% in size
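Using stably transfected HEK293 (constitutively active GLP-1R, cAMP-luciferase reporter), compounds were incubated 24 hr and luciferase measured by luminescence.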
Numbers without * were called inactive; i = inactive; u = inconclusive; x = not tested or not shown; [ ] = remark or other dose. The list is not random: actives were taken first. Their share in the collection is about 1.7%. Unless noted, calls come from the whole dose curve; as a rule, active = well fitted curve in the direction sought with a large enough effect; inconclusive = small, poorly fitted or top-dose-only effect, or another doubt; inactive = no such curve, though single readings can be large; an effect the other way counts as inactive or inconclusive.

1	CCOc1ccc(S(=O)(=O)NC2CCCCC2C)cc1 (stereo not given)
2	CCN(Cc1nc2ccccc2c(=O)[nH]1)C(=O)COc1ccccc1-c1ccccc1
3	COc1ccccc1CN(Cc1nc2ccccc2c(=O)[nH]1)C(=O)Nc1ccc(C)cc1
4	CCCN1CCN(c2cccc(Nc3nn4c(=O)c5ccccc5nc4s3)c2)CC1
5	CCN1C/C(=C\c2cccc([N+](=O)[O-])c2)C(=O)/C(=C/c2cccc([N+](=O)[O-])c2)C1

| Screen / compound no. | 1 | 2 | 3 | 4 | 5 |
| --- | --- | --- | --- | --- | --- |
| miR-21 reporter | x | x | -7.2% | x | 0.2% |
| Pin1 inhibitor | -11.4% | 30.3% | 5.3% | 5.9% | -6.3% |
| PTHR1 ag | -26.5% | -74.0% | -12.8% | x | -30.8% |
| HEK293 tox | 4.2% | u | u | x | 5.01µM* |
| GLP1R ag | -2.8% | -4.7% | 6.3% | x | -17.4% |
| GLP-1R inv ag | 10µM* | 11.2µM* | 10µM* | x | u |

6	CCOc1cc(C)c(S(=O)(=O)Nc2ccc(Cl)cn2)cc1C
7	CCOc1ccc(S(=O)(=O)Nc2ccc(Cl)cn2)c(C)c1C
8	O=C(NCCc1ccccc1)c1cnc2sc(N3CCCCCC3)nn2c1=O
9	Cc1cc(C)c(S(=O)(=O)/N=C2/C=C(Sc3ncn[nH]3)C(=O)c3ccccc32)cc1C
10	Cc1ccc(C)c(S(=O)(=O)/N=C2\C=C(NS(=O)(=O)c3ccccc3)C(=O)c3ccccc32)c1

| Screen / compound no. | 6 | 7 | 8 | 9 | 10 |
| --- | --- | --- | --- | --- | --- |
| miR-21 reporter | -7.6% | -6.3% | 0.8% | u | 0.7% |
| Pin1 inhibitor | 1.2% | 0.2% | -7.9% | 37.9µM* | -10.6% |
| PTHR1 ag | u | -49.7%[57.5 µM] | i | -10.7% | -24.1% |
| HEK293 tox | 20.5% | 2.0% | -3.9% | u | -26.2% |
| GLP1R ag | -0.4% | -14.3% | x | -33.4% | -2.2% |
| GLP-1R inv ag | 0.0% | 11.2µM* | 6.1% | 10µM* | 5.9% |

11	COCCNC(=S)N/N=C/c1ccc(N2CCOCC2)cc1
12	C=C(C)CNC(=S)N/N=C/c1ccc(N2CCOCC2)cc1
13	CCNc1nc(NC(C)(C)C)nc(SC(C(C)=O)C(C)=O)n1
14	CCNc1nc(SC(C(C)=O)C(C)=O)nc(N(C)C)n1
15	Clc1ccccc1-c1nc(Nc2ccccc2)nc2ccc(Br)cc12

| Screen / compound no. | 11 | 12 | 13 | 14 | 15 |
| --- | --- | --- | --- | --- | --- |
| miR-21 reporter | 27.3% | -16.4% | 15.4% | -4.3% | 3.1% |
| Pin1 inhibitor | -6.3% | -0.2% | 1.5% | -0.2% | 25.9% |
| PTHR1 ag | i | -27.0% | -15.8% | i | -12.8% |
| HEK293 tox | u | u | -9.7% | 1.7% | 42.1% |
| GLP1R ag | 7.2% | 22.3% | -4.8% | -9.4% | x |
| GLP-1R inv ag | u | 10µM* | 8.91µM* | -0.1% | 10µM* |

16	COC(=O)c1c(-c2ccc(Cl)cc2)noc1N1CCN(c2cccc(OC)c2)CC1
17	Nc1cc(S(=O)(=O)N2CCN(S(=O)(=O)c3ccc4c(c3)OCCO4)CC2)ccn1
18	Cc1cccc(C)c1OCC(O)CN1CCc2ccccc2C1 (stereo not given)
19	Cc1ccc(C(C)C)c(OCC(O)CN2CCc3ccccc3C2)c1 (stereo not given)
20	Cn1cc(CNCc2ccccc2OCC(O)CN2CCc3ccccc3C2)cn1 (stereo not given)

| Screen / compound no. | 16 | 17 | 18 | 19 | 20 |
| --- | --- | --- | --- | --- | --- |
| miR-21 reporter | 3.7% | x | x | 23.5% | -3.0% |
| Pin1 inhibitor | 9.8% | 5.1% | -0.5% | -12.4% | 0.2% |
| PTHR1 ag | -31.0% | x | -19.0% | i | i |
| HEK293 tox | -0.4% | x | 0.9% | u | u |
| GLP1R ag | x | x | 1.6% | -2.1% | -2.2% |
| GLP-1R inv ag | 11.5% | x | 10µM* | u | 8.91µM* |

21	Cc1nn(-c2ccccc2)c2c1cc1c(=O)n(C)c(=O)nc-1n2-c1cccc(Cl)c1
22	Cc1cc2c(s1)c1cnn(Cc3ccccc3F)c(=O)c1n2C(C)C
23	Cc1ccc2occ(CC(=O)N(Cc3ccc(Cl)cc3)C3CCS(=O)(=O)C3)c2c1 (stereo not given)
24	CCOC(=O)c1sc(NC(=S)NC(=O)c2ccccc2)c(C(=O)OCC)c1C
25	CCOC(=O)C1=C(NC(=S)NC(=O)c2ccccc2)c2ccccc2CC1(C)CC (stereo not given)

| Screen / compound no. | 21 | 22 | 23 | 24 | 25 |
| --- | --- | --- | --- | --- | --- |
| miR-21 reporter | -9.7% | x | 4.3% | -0.6% | 27.1% |
| Pin1 inhibitor | -0.9% | 6.2% | 7.2% | 5.4% | 8.8% |
| PTHR1 ag | -8.6% | x | -7.7% | i | -1.0% |
| HEK293 tox | 3.5% | x | -6.5% | -4.5% | 11.2µM* |
| GLP1R ag | -0.7% | x | x | -8.5% | -2.5% |
| GLP-1R inv ag | 2.7% | x | 11.2µM* | 5.0% | 5.01µM* |

One compound at a time (already shown):
`CCOC(=O)c1sc(NC(=S)NC(=O)c2ccccc2)c(C(=O)OCC)c1C` as listed: miR-21 reporter = -0.6%; Pin1 inhibitor = 5.4%; PTHR1 ag = i; HEK293 tox = -4.5%; GLP1R ag = -8.5%; GLP-1R inv ag = 5.0%
`Cc1ccc2occ(CC(=O)N(Cc3ccc(Cl)cc3)C3CCS(=O)(=O)C3)c2c1` (stereo not given) as listed: miR-21 reporter = 4.3%; Pin1 inhibitor = 7.2%; PTHR1 ag = -7.7%; HEK293 tox = -6.5%; GLP1R ag = x; GLP-1R inv ag = 11.2µM*

Going on with the list:
26	CCOC(=O)C1=C(NC(=S)NC(=O)c2ccccc2)c2ccccc2CC1C(C)C (stereo not given)
27	O=C(c1ccc2c(c1)OCCO2)N1CCN(c2nc(-c3cccs3)nc3ccccc23)CC1
28	Cc1ccccc1NC(=S)NC(=O)C1CCCCC1
29	O=C(NC(=S)Nc1ccccc1CO)C1CCCCC1
30	CCOc1ccc(C(C)NC(=S)NC2CCCCC2)cc1 (stereo not given)

| Screen / compound no. | 26 | 27 | 28 | 29 | 30 |
| --- | --- | --- | --- | --- | --- |
| miR-21 reporter | 20.7% | x | -18.6% | x | 5.3% |
| Pin1 inhibitor | 5.6% | 6.4% | 0.1% | -4.4% | u |
| PTHR1 ag | -0.8%[57.5 µM] | x | i | -15.9% | -16.6% |
| HEK293 tox | u | x | u | 4.9% | 11.2µM* |
| GLP1R ag | 4.8% | x | 1.4% | 25.9% | -5.4% |
| GLP-1R inv ag | 3.16µM* | x | 8.91µM* | -9.2% | u |

31	CN(Cc1ccccc1)S(=O)(=O)c1ccc(NC(=S)NC(=O)C2CCCCC2)cc1
32	CCOc1ccc(NC(=O)C2C3CCC4C(CCC32)C4(Cl)Cl)cc1 (stereo not given)
33	CCc1ccc(C(C)NC(=S)NC2CCCCC2)cc1 (stereo not given)
34	CCOc1ccc(NC(=O)C2C3CC/C=C\CCC32)cc1 (stereo not given)
35	CN(Cc1ccccc1)S(=O)(=O)c1ccc(NC(=S)NC(=O)C(C)(C)C)cc1

| Screen / compound no. | 31 | 32 | 33 | 34 | 35 |
| --- | --- | --- | --- | --- | --- |
| miR-21 reporter | u | -16.9% | 14.0% | -28.0% | 0.3% |
| Pin1 inhibitor | 4.4% | 4.8% | -0.9% | -1.9% | -13.5% |
| PTHR1 ag | -59.5% | i | -29.6% | i | i |
| HEK293 tox | 5.0% | -23.2% | -25.6% | -5.5% | -2.1% |
| GLP1R ag | 3.2% | -3.9% | -3.1% | 5.3% | -2.2% |
| GLP-1R inv ag | 2.51µM* | 7.08µM* | u | -26.8% | u |

36	CCCCCCCCCCCCCCCCC(C(=O)O)C(O)(CC(=O)O)C(=O)O (stereo not given)
37	CCOc1ccc(NC(=S)NC(=O)C2CCCC2)cc1
38	Cc1cc(C)cc(NC(=S)NC(=O)C2CC2)c1
39	COc1ccc(NC(=S)NC(=O)C2CCCCC2)cc1
40	COc1ccccc1NC(=O)CSc1n[nH]c(Cc2ccccc2)n1

| Screen / compound no. | 36 | 37 | 38 | 39 | 40 |
| --- | --- | --- | --- | --- | --- |
| miR-21 reporter | x | -37.1% | -4.7% | 9.6% | -1.2% |
| Pin1 inhibitor | x | -2.6% | -9.3% | 0.0% | 15.1% |
| PTHR1 ag | x | -6.1% | -12.4% | i | -6.7% |
| HEK293 tox | x | 0.0% | u | -15.7% | -6.6% |
| GLP1R ag | -3.2% | 11.6% | 18.8% | 4.4% | 7.7% |
| GLP-1R inv ag | x | 10µM* | 11.2µM* | 18.5% | -21.7% |

41	COc1ccccc1NC(=O)CSc1nc2ccccc2cc1Cc1ccccc1
42	N#Cc1cc2ccccc2nc1SCC(=O)NC1CC1
43	CCc1cc2ccccc2nc1SCC(=O)NC1CCCC1
44	O=C(Nc1ccc2nc(SCC(=O)N3CCCc4ccccc43)sc2c1)c1ccccc1

| Screen / compound no. | 41 | 42 | 43 | 44 |
| --- | --- | --- | --- | --- |
| miR-21 reporter | -2.0% | 5.3% | -2.2% | 25.6% |
| Pin1 inhibitor | 9.1% | -4.7% | -8.0% | 23.8% |
| PTHR1 ag | i | -2.9% | -9.5% | i |
| HEK293 tox | 4.0% | 6.1% | 11.2% | -6.8% |
| GLP1R ag | 1.2% | 4.2% | 17.5% | x |
| GLP-1R inv ag | 10µM* | 3.9% | 10µM* | u |

Screening data (PubChem)
